# Ab-14 light chain CDR variants: yeast mating affinities

Reference: Li et al. 2023, doi:10.1038/s41467-023-39022-2. File: FLAb, binding data.

Antigen: PDVDLGDISGINAS, a 14-residue peptide of the SARS-CoV-2 spike HR2 region.

The variants keep the heavy chain, the linker and the frameworks of Ab-14 (scFv order VH, a 15-residue (Gly4Ser)3 linker, VL).
VH: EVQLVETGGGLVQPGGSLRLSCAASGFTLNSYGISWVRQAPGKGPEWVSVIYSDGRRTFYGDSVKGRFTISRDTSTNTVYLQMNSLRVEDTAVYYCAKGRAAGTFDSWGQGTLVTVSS
VL: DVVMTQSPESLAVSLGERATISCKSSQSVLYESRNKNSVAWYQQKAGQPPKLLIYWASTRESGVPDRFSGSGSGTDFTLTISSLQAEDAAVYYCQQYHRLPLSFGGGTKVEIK

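The parent was found by panning a naive human phage display library on the peptide. This is the validation round: designs drawn from the data on random variants, tested in the same kind of assay. Group labels follow the data file (Ctrl: baseline library sampled from a position-specific scoring matrix, with some repeated check sequences; Rand: our label for a block that the file lists under HC and that is probably the random mutants of the ten best first-round binders; En: ensemble of fine-tuned language models; GP: Gaussian process model; HC: hill climbing; Gen: genetic algorithm; Gibbs: Gibbs sampling; a sequence that several methods proposed may carry one label only). Affinity was read by AlphaSeq, a pooled yeast mating assay with surface-displayed partners. Binding brings cells together so that they mate, and sequencing counts the barcode pairs among the diploids. Read counts were normalised to the haploid input and turned into Kd by a linear fit to BCL2-family pairs of known affinity, for each replicate. Mating was done six times.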

The parent's light chain CDRs are KSSQSVLYESRNKNSVA, WASTRES, QQYHRLPLS; each variant's own CDRs replace them letter for letter. The read-out is the apparent dissociation constant on a log10 scale (nM): the lower, the stronger. Averages over replicates are reported, and they cover detected replicates only. "no signal" means that the variant was in the library but no mating with the target was seen in any replicate; the authors take this as a sign of poor binding, and no number exists. The list is sorted by this average, lowest first, undetected variants last. The parent sequence was in this pool as ten entries: three were never detected, three once, and four in most replicates, with averages from 0.34 to 2.37. The range of this assay differs from that of the first round, and the authors advise against merging the two. The authors averaged sequences with at least three values out of six and counted those with two or fewer as poor binders. As a blank, each scFv also met three strains without target: over all light chain designs, 4% of these pairings were detected, typically at 2.64 and seldom below 1.59.

| CDR-L1 | CDR-L2 | CDR-L3 | group | log10 Kd (nM), mean | detected |
|---|---|---|---|---|---|
| KFSQSELYESRNKNSVA | NGSTRES | QQYHRLPLS | GP_Gen | -0.55 | 6 of 6 |
| KVSQSVLYESRNKNSVA | EASTREV | QQYHRLPLS | GP_Gen | -0.40 | 6 of 6 |
| KLRQSVLYESRNKNSVA | NASQRES | QQYHRLPLS | GP_Gen | -0.37 | 6 of 6 |
| KLSQSQLYESRNKNSVA | NASQRMS | QQYHRLPLS | GP_Gen | -0.35 | 6 of 6 |
| KLSQSVLYEQRNKNNVA | HASTRES | QQYHRLPLS | GP_Gen | -0.34 | 6 of 6 |
| KLSQSWMQESRNKNSVA | QASTREQ | QQYHRLPLS | GP_Gibbs | -0.32 | 6 of 6 |
| KLSQSEEYESRNKNSVA | NASQRLS | QQYHRLPLS | GP_Gen | -0.30 | 6 of 6 |
| KSSQSELIESRNKNSVA | DASTRES | QQYHRLPLS | GP_HC | -0.25 | 6 of 6 |
| KLEQSNLYEDRNANNVA | NASQRES | QQYHRLPLS | GP_Gibbs | -0.25 | 6 of 6 |
| KLSNQADYEDRNKNSVA | SASTRES | QQYHRLPLS | GP_Gibbs | -0.17 | 6 of 6 |
| KLPQSHLYESRNKNAVA | NASTRES | QQYHRLPLS | GP_Gen | -0.13 | 6 of 6 |
| KLDQSVLYESRNKNSVA | EASTRES | QQYHRLPLS | GP_Gen | -0.13 | 6 of 6 |
| KSSQSVGMESRNKNSVA | DASTRES | QQYHRLPLS | GP_HC | -0.12 | 6 of 6 |
| KLQQSVLYQSRNKNSVA | NASTRES | QQYHRLPLS | GP_Gen | -0.12 | 6 of 6 |
| KLEQSELYESRNKNSVA | EASTRES | QQYHRLPLS | GP_Gen | -0.11 | 6 of 6 |
| KVMQSMPYESRNKNSVA | EASQREL | QQYHRLPLS | GP_Gibbs | -0.09 | 6 of 6 |
| KMEQGVLYESRNKGSVA | GASQRES | QQYHRLPLS | GP_HC | -0.06 | 6 of 6 |
| KLYQSVLYESRNKNSVA | NGSTRES | QQYHRLPLS | GP_Gen | -0.04 | 6 of 6 |
| KSSQSVLYESRNANSVA | GASTRES | QQYHRLPLS | Ctrl | -0.02 | 6 of 6 |
| KLSQSWLYESRNSNSVA | HASQRED | QQYHRLPLS | GP_Gibbs | -0.01 | 6 of 6 |
| KIPQSMLGEWRNKNSVA | NASQRES | QQYHRLPLS | GP_Gibbs | 0.05 | 6 of 6 |
| NFPQEQMYESHFKNNVA | QTSTREP | QQYDHLPLS | En_HC | 0.07 | 6 of 6 |
| KSSWSQLYESGNKNSVA | HASTRED | QQYHRLPLS | GP_HC | 0.08 | 6 of 6 |
| KVVQSVDYEPRNKQSVA | DASTRLS | QQYHRLPLS | GP_Gibbs | 0.10 | 6 of 6 |
| KLSQSGLYESRNKNSVA | EASTREQ | QQYHRLPLS | GP_Gen | 0.12 | 6 of 6 |
| IFSQSVLMGQLTKNSVA | QASTRFS | QQYHRLPLI | En_HC | 0.14 | 6 of 6 |
| LIKGMVDGQYYWQNNIA | DSEERDR | QQYNHLPLS | En_Gibbs | 0.15 | 6 of 6 |
| KVSQSEEYESRMKNSVA | NASYREQ | QQYHRLPLS | GP_Gibbs | 0.17 | 6 of 6 |
| KSSQSVLYESRNSNSVA | GATTRES | QQYHRLPLS | Ctrl | 0.21 | 6 of 6 |
| KVVESELYESRNSNSVA | NASYRES | QQYHRLPLS | GP_Gibbs | 0.22 | 6 of 6 |
| KLVMSWQYESRNKNNVA | HASQRCS | QQYHRLPLS | GP_Gibbs | 0.26 | 6 of 6 |
| KSSWSFLYESRNNNSVA | GASTRES | QQYHRLTLS | Rand | 0.30 | 6 of 6 |
| KSSQSVLYESENKNSVA | DASTRES | QQYHRLPLS | Ctrl | 0.36 | 6 of 6 |
| KCDQWVFYGDRNKNSVA | NASTRES | QQYHRLPLS | GP_Gibbs | 0.37 | 6 of 6 |
| KVAELYEMGENFQSSIA | SGAHKVH | QQYYRLPLG | En_Gibbs | 0.38 | 6 of 6 |
| NLVERAQMQDSGRQAIA | NAHARAT | QQYFHLPLT | En_Gibbs | 0.41 | 6 of 6 |
| KLSMTTEMEHKNRNSVA | ELVTRMN | QQYHRLPLS | En_Gen | 0.47 | 6 of 6 |
| HMSDMLLGQEKIGHSIA | ETVVTSD | QQYGRLPLD | En_Gibbs | 0.49 | 6 of 6 |
| NISINQADEYKMRNNIA | NTSWKAM | QQYFHLPLM | En_Gibbs | 0.52 | 6 of 6 |
| KSSQSWLKESRNKNSVS | GASARES | QQYHRLPLS | Rand | 0.53 | 6 of 6 |
| KLEQSTWYESRMCNSVA | NASVRES | QQYHRLPLS | GP_Gibbs | 0.55 | 6 of 6 |
| KLTEQLYNGERRPSSIA | AGVIGSD | QQYHQLPLV | En_Gibbs | 0.55 | 6 of 6 |
| KLSQSTLYDSQNKNSVA | WASTRES | QQYTRLPLS | GP_HC | 0.57 | 6 of 6 |
| HVELGVGGVQKYGSSVA | HASQRQS | QQYYQLPLT | En_Gibbs | 0.58 | 6 of 6 |
| KISGMYQKESKNKNSIA | EMVTRES | QQYDRLPLS | En_HC | 0.61 | 6 of 6 |
| HITYGMQVMGRHSKSIA | QAETRED | QQYDRLPLI | En_Gen | 0.66 | 6 of 6 |
| KLSCSWLMESRNSNSVA | HASKRES | QDYHRLPLS | GP_Gibbs | 0.66 | 6 of 6 |
| KLMPSNLHYTEHLNSVA | EAEELQT | QHYARLPLM | En_Gibbs | 0.66 | 6 of 6 |
| HSSPSVLYESRNKNSVA | DASTRES | QQYHRLPLS | GP_HC | 0.70 | 6 of 6 |
| KLTHLSFVHDRMKNNVA | DLNRKAA | QQYNRLPLT | En_Gibbs | 0.72 | 6 of 6 |
| QISQLMGLSMHGTNNVA | QMETREK | QQYDRLPLS | En_Gen | 0.73 | 6 of 6 |
| MFSQMTGLGMKASNSVA | QASTRFE | QQYVRLPLI | En_Gen | 0.81 | 6 of 6 |
| KYQFSELELSRNKNSVA | WASTREL | QDYHRLPLS | GP_Gibbs | 0.83 | 6 of 6 |
| KSGQSRLGESRTDNSVA | WASKRES | QQYHRLPLS | Ctrl | 0.88 | 4 of 6 |
| KSSQHVLGESRNKNSVA | AASTRES | QQYHRLPLS | Ctrl | 0.99 | 6 of 6 |
| KSSQSVLYESTNKNSVA | QASTREE | SQYHRLPLH | Ctrl | 1.06 | 6 of 6 |
| HITYGMLVSGRHTSNIA | QAETRAK | QQYDRLPLI | En_Gen | 1.06 | 2 of 6 |
| KLDQWVEMESRWKNSVA | SASQRNE | QQYHRLPLS | GP_Gibbs | 1.19 | 6 of 6 |
| KLSQSVNFFGHAINSVA | EMVTREN | QQYDRLPLS | En_HC | 1.34 | 6 of 6 |
| KIHCRELMHGGQINAIA | EAAKLVE | QQYALLPLA | En_Gibbs | 1.47 | 6 of 6 |
| KIGDTLNQQMTKRNNVA | DLVMREN | QQYFRLPLS | En_Gen | 1.56 | 6 of 6 |
| KSSTSVLYESRNKNSVA | WASTRES | QQYHRLFLS | Ctrl | 1.74 | 1 of 6 |
| QLSGPMVMESKNKNSVA | EFSTRGS | QQYHRLPLS | En_HC | 1.81 | 3 of 6 |
| TLYGLTNSMSKNKDNVA | EMSTREQ | QQYDRLPLA | En_Gen | 1.83 | 4 of 6 |
| TLSQMSGLEAVKHNSVA | ENSTREN | QQYDRLPLS | En_Gen | 1.85 | 3 of 6 |
| KSSQSVLGESRNKNSVA | WASTREK | QQYHRLPLF | Ctrl | 1.89 | 6 of 6 |
| KLGAWMYWQTEAKRAIA | QDEMRVH | QQYDRLPLM | En_Gibbs | 1.95 | 6 of 6 |
| KISDMMQTDMGRMSAVA | DDDVAND | QQYARLPLA | En_Gibbs | 1.96 | 6 of 6 |
| KSSQSVLMESSNKNSVA | WASTRES | QQYHHLPLE | Ctrl | 2.17 | 3 of 6 |
| KSSQSVLYEERNKNSVA | WASTRES | QTYHRLPLS | Ctrl | 2.26 | 3 of 6 |
| MISQLYNMGQFAINSVA | QASVRNE | QQYDRLPLI | En_Gen | 2.27 | 4 of 6 |
| KIGHGLTTEMYNRNSVA | QTETRVP | QHYHRLPLS | En_HC | 2.28 | 6 of 6 |
| KISQSVEYESVNKNSVA | GASTRES | QQYHRDPLS | Ctrl | 2.29 | 6 of 6 |
| KSSQSVLLESRNKNQVA | WASTRES | QQYHRLPLS | Ctrl | 2.51 | 1 of 6 |
| KLRQSTLYKSRNKPSVA | WASTRES | QQYHWLPLS | Rand | 3.59 | 2 of 6 |
| KSAQGVLYESRNKNSVA | WVSTREP | TYYHRLPTS | Ctrl | no signal | 0 of 6 |
| KSSQSVLYESFNKNSVA | WASTRES | QQCDRLPLS | Ctrl | no signal | 0 of 6 |
| KSSQSVLYESRNKNSVA | KASTRES | QQLHRLPLS | Ctrl | no signal | 0 of 6 |
| KTSQSDLYESNNKNSVA | WASTRES | QQYHRLPLS | Ctrl | no signal | 0 of 6 |

Again, the first 4 entries without any signal:

{"CDR-L1": "KSAQGVLYESRNKNSVA", "CDR-L2": "WVSTREP", "CDR-L3": "TYYHRLPTS", "group": "Ctrl", "log10 Kd (nM), mean": "no signal", "detected": "0 of 6"}
{"CDR-L1": "KSSQSVLYESFNKNSVA", "CDR-L2": "WASTRES", "CDR-L3": "QQCDRLPLS", "group": "Ctrl", "log10 Kd (nM), mean": "no signal", "detected": "0 of 6"}
{"CDR-L1": "KSSQSVLYESRNKNSVA", "CDR-L2": "KASTRES", "CDR-L3": "QQLHRLPLS", "group": "Ctrl", "log10 Kd (nM), mean": "no signal", "detected": "0 of 6"}
{"CDR-L1": "KTSQSDLYESNNKNSVA", "CDR-L2": "WASTRES", "CDR-L3": "QQYHRLPLS", "group": "Ctrl", "log10 Kd (nM), mean": "no signal", "detected": "0 of 6"}